Values of other authors as cited in PMC5060010 (ACS chemical biology, 2013).

By UniProt entry, the sequences of proteins in these tests, tags left out.
UniProt P35372, whole entry: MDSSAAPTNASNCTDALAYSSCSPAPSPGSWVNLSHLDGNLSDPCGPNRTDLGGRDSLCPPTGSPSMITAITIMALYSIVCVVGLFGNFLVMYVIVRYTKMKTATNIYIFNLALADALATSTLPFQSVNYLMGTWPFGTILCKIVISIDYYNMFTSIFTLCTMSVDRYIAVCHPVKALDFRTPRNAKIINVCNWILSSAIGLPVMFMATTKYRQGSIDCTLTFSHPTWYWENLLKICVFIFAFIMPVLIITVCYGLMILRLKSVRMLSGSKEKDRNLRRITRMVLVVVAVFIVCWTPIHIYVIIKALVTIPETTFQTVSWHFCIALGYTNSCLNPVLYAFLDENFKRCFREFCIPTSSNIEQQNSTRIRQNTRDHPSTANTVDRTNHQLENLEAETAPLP
UniProt P41143, whole entry: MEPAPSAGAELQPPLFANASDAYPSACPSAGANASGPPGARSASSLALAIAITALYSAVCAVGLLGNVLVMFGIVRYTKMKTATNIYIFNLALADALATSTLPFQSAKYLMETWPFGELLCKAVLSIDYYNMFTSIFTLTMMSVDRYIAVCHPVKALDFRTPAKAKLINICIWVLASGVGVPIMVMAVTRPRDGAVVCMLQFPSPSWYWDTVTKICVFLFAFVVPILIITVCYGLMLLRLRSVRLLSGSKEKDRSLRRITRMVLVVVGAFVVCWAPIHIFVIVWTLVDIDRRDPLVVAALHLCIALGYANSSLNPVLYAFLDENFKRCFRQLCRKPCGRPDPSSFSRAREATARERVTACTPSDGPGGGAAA

Biological target: mu-delta heteromer (Homo sapiens, UniProt P35372+P41143)
Settings: cited from earlier work

DAMGO
co-internalization of mu-delta heteromer: co-internalize mu-delta heteromer
